Results on one compound are retold here after BindingDB's records for 15454240.

By UniProt entry, the sequences of proteins in these tests, tags left out.
UniProt Q9D6N1, whole entry, looked up: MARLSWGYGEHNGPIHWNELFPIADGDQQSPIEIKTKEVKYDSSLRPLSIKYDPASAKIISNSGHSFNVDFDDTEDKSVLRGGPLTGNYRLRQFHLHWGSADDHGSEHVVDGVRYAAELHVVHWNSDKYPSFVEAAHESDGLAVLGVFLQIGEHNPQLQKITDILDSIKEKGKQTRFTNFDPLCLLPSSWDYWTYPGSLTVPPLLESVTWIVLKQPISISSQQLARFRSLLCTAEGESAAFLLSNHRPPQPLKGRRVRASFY

What is called Ki is a dissociation constant, usually derived from enzyme kinetics or from competition with a known ligand. A lower Ki goes with tighter binding.

For the experiment, the target named is Carbonic anhydrase 13 (Mus musculus, UniProt Q9D6N1).

The structures appear in SMILES notation.

`[N-]=[N+]=N`: the Ki was 4.8 mM.
